Reference: patent publication US8772449B2, “Cell-penetrating peptides” (Toray Industries, Inc., priority 2009, dated 2014)

Experiment: Intranasal administration of insulin with peptide to rats (blood glucose, plasma insulin, bioavailability, AUC)
Settings: Example 4, insulin 1 IU/kg alone or mixed with 0.5 mM peptide (L-body), male SD rat, FIG. 5

Question: With insulin as the substance, how does the “blood insulin level after intranasal administration” value read?
Answer: increase in the blood insulin level could be hardly confirmed
